Protein sequences, listed by entry. Tags and fused reporters are not part of them.
UniProt P06276, whole entry: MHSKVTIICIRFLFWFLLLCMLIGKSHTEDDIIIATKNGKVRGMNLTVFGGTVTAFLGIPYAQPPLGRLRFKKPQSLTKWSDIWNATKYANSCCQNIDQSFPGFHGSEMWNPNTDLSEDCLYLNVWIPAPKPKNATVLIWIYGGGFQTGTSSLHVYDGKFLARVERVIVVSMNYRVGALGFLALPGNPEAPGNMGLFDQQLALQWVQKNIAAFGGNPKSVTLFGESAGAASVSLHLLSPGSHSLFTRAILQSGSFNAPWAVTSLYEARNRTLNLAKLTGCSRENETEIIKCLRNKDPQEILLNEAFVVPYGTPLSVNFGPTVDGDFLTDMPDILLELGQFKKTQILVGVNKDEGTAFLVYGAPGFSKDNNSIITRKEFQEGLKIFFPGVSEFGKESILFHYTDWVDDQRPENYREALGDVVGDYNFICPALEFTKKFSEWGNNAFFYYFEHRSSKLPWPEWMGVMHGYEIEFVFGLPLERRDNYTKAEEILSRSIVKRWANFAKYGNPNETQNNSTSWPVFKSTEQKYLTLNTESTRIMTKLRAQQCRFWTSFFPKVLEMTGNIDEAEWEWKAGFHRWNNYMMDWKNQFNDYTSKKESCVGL

According to ChEMBL document CHEMBL4342404, “Anti-cholinesterase hybrids as multi-target-directed ligands against Alzheimer's disease (1998-2018)” (Bioorg Med Chem, 2019):

Target: Cholinesterase (Homo sapiens, UniProt P06276)

CCN(C)C(=O)Oc1cccc([C@H](C)N(C)C)c1 [RIVASTIGMINE]
IC50: 9.12 µM
